Results reported in ChEMBL document CHEMBL3745703 (Bioorg Med Chem Lett, 2016).

Protein sequences, listed by entry. Tags and fused reporters are not part of them. Lines headed by an entry give the natural chain unless they say otherwise; changes in a name come on top.
UniProt Q99572: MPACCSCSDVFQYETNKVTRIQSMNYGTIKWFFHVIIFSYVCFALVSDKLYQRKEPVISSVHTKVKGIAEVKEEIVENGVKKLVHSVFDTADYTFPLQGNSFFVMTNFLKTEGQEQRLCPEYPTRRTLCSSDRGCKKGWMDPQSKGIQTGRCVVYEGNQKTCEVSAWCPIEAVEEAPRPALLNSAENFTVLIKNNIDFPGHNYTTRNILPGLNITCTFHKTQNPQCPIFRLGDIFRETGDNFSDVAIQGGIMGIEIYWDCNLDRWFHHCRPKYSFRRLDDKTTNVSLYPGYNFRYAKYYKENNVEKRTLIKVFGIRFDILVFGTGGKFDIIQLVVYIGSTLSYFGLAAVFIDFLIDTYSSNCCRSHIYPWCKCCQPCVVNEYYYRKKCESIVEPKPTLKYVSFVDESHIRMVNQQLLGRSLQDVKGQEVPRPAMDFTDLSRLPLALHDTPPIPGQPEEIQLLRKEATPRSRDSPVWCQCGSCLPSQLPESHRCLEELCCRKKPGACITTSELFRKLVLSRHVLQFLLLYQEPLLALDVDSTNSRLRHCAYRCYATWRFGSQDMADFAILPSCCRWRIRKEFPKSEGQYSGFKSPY

Key:
P2X purinoceptor 7 [1] = target: P2X purinoceptor 7 (Homo sapiens, UniProt Q99572); assay: Antagonist activity at human P2X7 receptor expressed in 1321N1 cells assessed as inhibition of Bz-ATP-induced Ca2+ flux after 30 mins by FLIPR assay; assay type: cell-based
P2X purinoceptor 7 [2] = target: T1, P2X purinoceptor 7 (Rattus norvegicus, UniProt Q64663); assay: Antagonist activity at rat P2X7 receptor expressed in 1321N1 cells assessed as inhibition of Bz-ATP-induced Ca2+ flux after 30 mins by FLIPR assay; assay type: cell-based
T1 sequence (Q64663 whole entry): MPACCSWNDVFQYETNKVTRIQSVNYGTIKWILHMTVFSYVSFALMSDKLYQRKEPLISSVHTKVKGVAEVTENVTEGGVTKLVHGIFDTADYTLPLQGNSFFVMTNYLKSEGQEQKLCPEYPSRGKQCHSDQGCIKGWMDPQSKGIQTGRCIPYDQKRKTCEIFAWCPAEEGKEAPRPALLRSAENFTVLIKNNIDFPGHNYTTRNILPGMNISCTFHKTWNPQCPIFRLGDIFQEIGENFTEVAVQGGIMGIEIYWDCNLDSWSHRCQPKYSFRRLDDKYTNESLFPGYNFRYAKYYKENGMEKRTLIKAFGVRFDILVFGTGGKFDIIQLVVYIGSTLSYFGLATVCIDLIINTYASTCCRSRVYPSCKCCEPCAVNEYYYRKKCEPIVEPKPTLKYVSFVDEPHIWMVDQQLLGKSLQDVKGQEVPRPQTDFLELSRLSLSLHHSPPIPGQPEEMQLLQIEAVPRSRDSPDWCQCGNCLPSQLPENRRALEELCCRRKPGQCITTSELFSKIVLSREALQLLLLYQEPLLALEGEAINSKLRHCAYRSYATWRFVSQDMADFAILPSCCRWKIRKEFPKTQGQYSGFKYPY

[3] = Extraction ratio in human liver microsomes at 1 uM; assay type: ADME; details: read-out: ERH
[4] = Efflux ratio of apparent permeability from basolateral to apical side over apical to basolateral side in human Caco2 cells; assay type: ADME, cell-based; details: Caco-2
[5] = Selectivity ratio of IC50 for rat P2X7 receptor to IC50 for human P2X7 receptor
[6] = Extraction ratio in rat liver microsomes at 1 uM; assay type: ADME; details: read-out: ERH

SMILES	IC50 (P2X purinoceptor 7 [1]) [nM]	IC50 (P2X purinoceptor 7 [2]) [nM]	further results
Cc1c(CN2C(=O)c3nnc(-c4cnccn4)n3C[C@@H]2C)cccc1C(F)(F)F	3.4	506	
C[C@H]1Cn2c(nnc2-c2ccncn2)C(=O)N1Cc1cccc(C(F)(F)F)c1Cl	3.8	> 10000	
C[C@H]1Cn2c(nnc2-c2ccc(F)cn2)C(=O)N1Cc1cccc(C(F)(F)F)c1Cl		380	
C[C@H]1Cn2c(nnc2-c2ccc(F)cc2)C(=O)N1Cc1cccc(C(F)(F)F)c1Cl	0.2		
CC1Cn2c(nnc2-c2cnccn2)C(=O)N1Cc1cccc(C(F)(F)F)c1Cl (stereo not drawn)	3.4	36	
C[C@@H]1Cn2c(nnc2-c2cnccn2)C(=O)N1Cc1cccc(C(F)(F)F)c1Cl	4710		
C[C@H]1Cn2c(nnc2-c2ncccn2)C(=O)N1Cc1cccc(C(F)(F)F)c1Cl	0.5		
CC(c1cccc(C(F)(F)F)c1Cl)N1C(=O)c2nnc(-c3cnccn3)n2C[C@@H]1C (mixture of isomers)	65	2690	
C[C@H]1Cn2c(nnc2-c2cnccn2)C(=O)N1Cc1c(Cl)cccc1Cl	72		
C[C@H]1Cn2c(nnc2-c2cnccn2)C(=O)N1Cc1cccc(C(F)(F)F)c1Cl		79	hepatic extraction ratio at 1 µM [3]: 0.4; efflux ratio [4]: 1.1; Ratio IC50 [5]: 100; hepatic extraction ratio at 1 µM [6]: 0.4
C[C@H]1Cn2c(nnc2-c2cncc(Cl)c2)C(=O)N1Cc1cccc(C(F)(F)F)c1Cl	4.3		
C[C@H]1Cn2c(nnc2-c2cnccn2)C(=O)N1Cc1ccccc1Cl	216		
C[C@H]1Cn2c(nnc2-c2cc[nH]n2)C(=O)N1Cc1cccc(C(F)(F)F)c1Cl	0.6	7.1	
C[C@H]1Cn2c(nnc2-c2cnccn2)C(=O)N1Cc1ccccc1	6960		
